# AlphaSeq binding of Ab-14 light chain variants to a spike HR2 peptide

From the AlphaSeq antibody data of Li et al. 2023 (doi:10.1038/s41467-023-39022-2), copy in the FLAb collection.

The target is the same throughout: PDVDLGDISGINAS, from the HR2 region of SARS-CoV-2 spike.

The variants keep the heavy chain, the linker and the frameworks of Ab-14 (scFv order VH, a 15-residue (Gly4Ser)3 linker, VL).
VH: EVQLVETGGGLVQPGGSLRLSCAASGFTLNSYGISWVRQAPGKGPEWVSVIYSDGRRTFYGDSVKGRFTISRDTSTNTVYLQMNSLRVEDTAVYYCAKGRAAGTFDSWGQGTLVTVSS
VL: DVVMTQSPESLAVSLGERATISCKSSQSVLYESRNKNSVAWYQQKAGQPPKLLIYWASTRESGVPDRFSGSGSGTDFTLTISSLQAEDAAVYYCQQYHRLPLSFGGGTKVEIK

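These sequences belong to a second round, designed from the earlier measurements on random variants of the parent. Several design methods are mixed in this list. In AlphaSeq, yeast of one mating type display the scFv and yeast of the other type display the target. After mating in shaken culture at 30 °C for 16 h, diploids were selected and their barcode pairs sequenced. Scores were corrected for input abundance and mapped to Kd with protein pairs of known affinity run in the same pool. Each pool was mated in six replicate cultures.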

Each variant is given by its three light chain CDRs, as the data file delimits them; those of the parent are KSSQSVLYESRNKNSVA, WASTRES, QQYHRLPLS.
This list holds designs with at most six substitutions.
Affinities are written as log10 Kd with Kd in nM; a lower number is a better binder.
A mean of the replicates is given; it leaves out those without a signal.
An entry "nd" has no value in the source: the pair was not observed among the diploids in any replicate. This suggests poor binding but is not conclusive.

* KSSQSVLYDSRNKNSVA | DASTRES | SQYHRLPLS = 1.65 (6 of 6 replicates)
* KSSISYLYESRNTNSVA | EASTREQ | QQYHRLPLS = -0.14 (6 of 6 replicates)
* KLMQSELYESRNKNSVA | GASTRES | QQYHRLPLS = -0.26 (6 of 6 replicates)
* KLSQSVLYESSNKNSVA | FASTRES | QQYHGLPLS = 1.92 (3 of 6 replicates)
* KLSQSELYESRNKNSVA | QASTRES | QDYHRLPLS = 0.65 (6 of 6 replicates)
* KSHQSVLYESRNKNSVA | NASTLES | QQYHSLPLS = 0.46 (6 of 6 replicates)
* KASQSVLYESRNKNSVA | WASTRES | QQYHRLPLY = 1.06 (6 of 6 replicates)
* KVSQSVLYESGTKNSVA | NASLREC | QQYHRLPLS = 0.46 (6 of 6 replicates)
* KSSQSGLYESRNKSSGA | WASTREM | QQYHRLPGS = nd (0 of 6 replicates)
* KWSQSTLYESRNCNSVA | DASTRES | KQYHRLPLS = 0.45 (6 of 6 replicates)
* KSSQSVLYESRNKNSVA | NASTRES | QQYFRLPLY = 1.19 (6 of 6 replicates)
* KFSESVSYESRNKNSVA | AASTRES | QSYHRLPLS = -0.22 (6 of 6 replicates)
* KLDQQTLYESRNKNSVA | WASTREE | QQYHRLPLS = 0.69 (6 of 6 replicates)
* KVSQQMLYESRNKNNVA | EASHRES | QQYHRLPLS = -0.43 (6 of 6 replicates)
* KSQQYVAYEDRNKNSVA | WASTRES | QQYARLLLS = nd (0 of 6 replicates)
* KVSQSVLYEQRNKNSVA | NASTRMS | QQYHRLPLS = 0.08 (6 of 6 replicates)
* KYSQSMLYESRNKNSVA | WASTRAS | QQYHRLPRS = 2.11 (3 of 6 replicates)
* KSSDSVLYENRNKNSVA | WASTRES | QQYHRLPLS = nd (0 of 6 replicates)
* KSSQSVGYESRNKNSVA | WASQRES | QQYHRLPLS = 1.51 (26 of 30 replicates)
* KSSQSWLLESRNKNSVA | HASTRES | QQYHRLPLS = 0.76 (4 of 6 replicates)
* KVWQSVLYESFNKNSVA | EASTRES | QQYHRLPLS = 1.41 (6 of 6 replicates)
* KSSQTVLEESRNKNSVA | WASTHES | QQYHRLPNS = nd (0 of 6 replicates)
* KLSQSVLYESRMKNSVA | EASTRLS | QQYHRLPLS = 0.14 (6 of 6 replicates)
* KSFFSVPGESRNKNSVA | EASTRES | QQYHRLPLS = 0.38 (6 of 6 replicates)
* KLSQSVPYESRNKNSVA | DASTRCS | QQYHRLPLS = -0.12 (6 of 6 replicates)
* KSSFSLLYESRNLNSVA | WASTRES | QQYHRLPLS = 1.64 (6 of 6 replicates)
* KLSQSVLYEERNKNSVA | NASQRMS | QQYHRLPLS = -0.48 (6 of 6 replicates)
* KSSPSVLYESQNKNSVA | WASTRES | QQYHRLPLS = 1.21 (5 of 6 replicates)
* KSGQGDLYESRNKNHVA | GASTRES | QQYHRLPLS = -0.18 (6 of 6 replicates)
* KLSQSVLYESRNKNSVA | QASTREE | QQYHRLPLS = -0.44 (12 of 12 replicates)
* KLSQWQLGESRNKNSVA | SASTRCS | QQYHRLPLS = 0.77 (6 of 6 replicates)
* KSDQSVLYESRNKNSVA | DASTNEW | QQYHRLPLS = 0.72 (6 of 6 replicates)
* KLPQSTLYESRNKNSVA | EASTRES | QQYHRLPLS = -0.25 (6 of 6 replicates)
* ISSQSWLYESRNKNSVA | GASTRES | QQYHRLPLS = -0.59 (6 of 6 replicates)
* KISESVEYESRNKNSVA | GASTRES | QQYDRLPVS = 0.49 (6 of 6 replicates)
* KSSQSVLFESSNKNSVA | ESSTRAS | QQYHRLPLS = -0.19 (6 of 6 replicates)
* KMSQAVLYESRNKNSVA | WASTRES | QTYHRLPLS = 1.17 (6 of 6 replicates)
* KVAQSDLYESRNKNSVA | EASTRES | QQYHRLPLS = -0.13 (6 of 6 replicates)
* KISQSVLMESRNSNSVA | DASTRES | QQYHRLPLS = -0.05 (6 of 6 replicates)
* KLSTSVLYGKRNKNSVA | QASQRES | QQYHRLPLS = 0.34 (6 of 6 replicates)
* KLDQSVLYESRNKNSVA | HASTRED | KQYHRLPLS = 1.46 (6 of 6 replicates)
* KLQGSELYESRNKNSVA | NASTRES | QQYHRLPLS = -0.26 (6 of 6 replicates)
* KLMQSVLYESRNKNSIA | HASLRED | QQYHRLPLS = -0.18 (6 of 6 replicates)
* KMSQSVLYESRNKNSVA | WASERES | QQYNRLPLS = 0.18 (6 of 6 replicates)
* KLMGSMEYESRNKNSVA | EASTRES | QQYHRLPLS = 0.47 (6 of 6 replicates)
* KSSQSVDYESQNKNSVN | WASTRES | QTYHRLPLS = 1.18 (1 of 6 replicates)
* KLPMSTLYESRNKNSVA | WASTRES | QQYHRLPLS = 0.09 (6 of 6 replicates)
* KDLQSVLYESRDKNSVA | HASTRED | QQYHRLPLS = 0.40 (6 of 6 replicates)
* KASQSWLYESRNKNSVA | GASLRES | QQYHRLPLS = -0.51 (6 of 6 replicates)

The first 3 entries again:

CDR-L1	CDR-L2	CDR-L3	mean log10 Kd (nM)	seen in
KSSQSVLYDSRNKNSVA	DASTRES	SQYHRLPLS	1.65	6/6
KSSISYLYESRNTNSVA	EASTREQ	QQYHRLPLS	-0.14	6/6
KLMQSELYESRNKNSVA	GASTRES	QQYHRLPLS	-0.26	6/6

Values of this round are not directly comparable with the first-round values of the same sequences.
A sequence that the file lists under several names has all its replicates pooled.
As a blank, each scFv also met three strains without target: over all light chain designs, 4% of these pairings were detected, typically at 2.64 and seldom below 1.59.
In the paper, a design with two or fewer of six values counts as a poor binder.